Literature values, collected in PMC13170487.

Key:
[1] = target: CFTR C-terminus (Homo sapiens)

Kd [1]: 420 µM and 590 µM
Ki (iCAL36): 22.6 µM
Substance: CAL PDZ (from UniProt Q9HD26)

Values joined by “and” are separate entries in the source; they are usually repeats but may differ in a detail not shown here. Equal values may be shown once.
